From patent US9670214B2, “Small molecule myristate inhibitors of Bcr-abl and methods of use” (DANA-FARBER CANCER INSTITUTE, INC., priority 2007, dated 2017)
pIC50: −log10 of the molar value.

Legend:
[1] = biological target: Bcr-abl (Ba/F3.p210 cells) (Homo sapiens, UniProt P00519); assay: Proliferation assay (MTT), wild type Bcr-abl expressing Ba/F3 cells; format: cell-based, murine; settings: 48 h, drug concentrations 0.005-10 μM
Excerpt: (§1) Wild type Bcr-abl expressing 32D (32D.p210) and Ba/F3 (Ba/F3.p210) cells, and mutant Bcr-abl expressing cell lines Ba/F3.p210^G250E, Ba/F3.p210^E255V, Ba/F3.p210^T315I, Ba/F3.p210^F317L and Ba/F3.p210^M351T, as well as Ba/F3 cells transformed with Flt-3-ITD kinase. Additional assays included Ba/F3 cells expressing the fusion protein kinases TEL-PDGFRβ, TEL-JAK1, NPM-ALK, TEL-cKit, Tel-Bmx, Tel-FGR3, Tel-Lck and Ba/F3.TPR-met cells. All the above cell lines were maintained in RPMI-1640 medium with L-Glutamine, 10% FBS and 1 mg/ml geneticin (Gibco).
(§2) Cells (0.3-0.6×10^6/ml) were plated in duplicate or triplicate in 96-well plates containing increasing drug concentrations (0.005-10 μM). After incubation at 37° C. in 5% CO2 for 48 h, the effect of the compounds on cell viability was determined by MTT (Promega) colorimetric dye reduction method. Inhibition of cell proliferation was calculated as a percentage of growth of DMSO treated cells, and IC50 values were determined with Microsoft Excel XLfit3.

[2] = biological target: Bcr-abl T315I (Ba/F3.p210^T315I cells) (Homo sapiens, UniProt P00519, T315I, cells depend on it); assay: Proliferation assay (MTT), T315I mutant Bcr-abl expressing Ba/F3 cells; format: cell-based, murine; settings: 48 h, drug concentrations 0.005-10 μM
Excerpt: as §1, §2

[3] = test system: Ba/F3 cells (IL-3 dependent murine pro-B cell line); assay: Proliferation assay (MTT), parental Ba/F3 cells; format: cell-based; settings: Mus musculus, 48 h, drug concentrations 0.005-10 μM, read-out: BaF3
Procedure: Interleukin-3 (IL-3) dependent murine pro-B cell line, Ba/F3, and murine myeloid precursor cell line, 32D, were maintained in RPMI-1640 medium supplemented with L-Glutamine, 10% FBS and 10 U/ml recombinant murine IL-3 (Roche). Mo7e human megakarioblastic cell line was grown in RPMI-1640 medium supplemented with L-Glutamine, 20% FBS and 5 ng/ml recombinant human granulocyte macrophage cell stimulating factor (GM-CSF) (R&D Systems) or 200 ng/ml stem cell factor (SCF) (Biosource).
as §2

Structure (SMILES): Cn1cnc2ncnc(Nc3ccc(OC(F)(F)F)cc3)c21
- pIC50 [1]: 5.11

Structure (SMILES): OC[C@H]1OC(n2cnc3c(Nc4ccc(OC(F)(F)F)cc4)ncnc32)[C@H](O)[C@@H]1O (stereo partly drawn)
- pIC50 [1]: 5.67

Structure (SMILES): FC(F)(F)Oc1ccc(Nc2ncnc3c2ncn3CCN2CCOCC2)cc1
- pIC50 [1]: 5.61

Structure (SMILES): OC[C@H]1OC(n2ccc3c(Nc4ccc(OC(F)(F)F)cc4)ncnc32)[C@H](O)[C@@H]1O (stereo partly drawn)
- pIC50 [1]: 5.26
- pIC50 [2]: < 5.00

Structure (SMILES): OCCn1ccc2c(Nc3ccc(OC(F)(F)F)cc3)ncnc21
- pIC50 [1]: 6.35
- pIC50 [2]: 5.55

Structure (SMILES): COc1ccc(Cn2ccc3c(Nc4ccc(OC(F)(F)F)cc4)ncnc32)cc1
- pIC50 [1]: 5.01
- pIC50 [2]: < 5.00

Structure (SMILES): COCCCNC(=O)CCn1ccc2c(Nc3ccc(OC(F)(F)F)cc3)ncnc21
- pIC50 [1]: 5.49

Structure (SMILES): Cn1c(C(=O)N2CCC(Br)CC2)cc2c(Nc3ccc(OC(F)(F)F)cc3)ncnc21
- pIC50 [1]: 5.70

Structure (SMILES): CCOC(=O)C1CCCN(C(=O)c2cc3c(Nc4ccc(OC(F)(F)F)cc4)ncnc3n2C)C1 (stereo not drawn)
- pIC50 [1]: 5.20
- pIC50 [2]: < 5.00

Structure (SMILES): Cn1c(C(=O)N2CCCC(CO)C2)cc2c(Nc3ccc(OC(F)(F)F)cc3)ncnc21 (stereo not drawn)
- pIC50 [1]: 5.76
- pIC50 [2]: < 5.00

Structure (SMILES): Cn1c(C(=O)N2CCC3(CC2)C(=O)NCN3c2ccccc2)cc2c(Nc3ccc(OC(F)(F)F)cc3)ncnc21
- pIC50 [1]: 5.21
- pIC50 [2]: < 5.00

Structure (SMILES): COC[C@H]1CCCN1C(=O)c1cc2c(Nc3ccc(OC(F)(F)F)cc3)ncnc2n1C
- pIC50 [1]: 5.66
- pIC50 [2]: < 5.00

Structure (SMILES): CCNC(=O)c1cc2c(Nc3ccc(OC(F)(F)F)cc3)ncnc2n1C
- pIC50 [1]: 6.35
- pIC50 [2]: 5.16

Structure (SMILES): OCc1cc2c(Nc3ccc(OC(F)(F)F)cc3)ncnc2s1
- pIC50 [2]: 5.43

Structure (SMILES): O=C(c1cc2c(Nc3ccc(OC(F)(F)F)cc3)ncnc2s1)N1CCNCC1
- pIC50 [2]: 5.64
- pIC50 [3]: 5.39

Structure (SMILES): O=C(c1cc2c(Nc3ccc(OC(F)(F)F)cc3)ncnc2s1)N1CCN(N2CCCC2)CC1
- pIC50 [2]: 5.40

Structure (SMILES): CCOC(=O)Cc1cnc(NC(=O)c2ccc3c(Nc4ccc(OC(F)(F)F)cc4)ncnc3c2)s1
- pIC50 [1]: 5.52
- pIC50 [2]: 5.38

Structure (SMILES): CN(C)C1CCN(C(=O)c2ccc3c(Nc4ccc(OC(F)(F)F)cc4)ncnc3c2)C1 (stereo not drawn)
- pIC50 [1]: 5.56
- pIC50 [2]: < 5.00

Structure (SMILES): CN1CCCN(C(=O)c2ccc3c(Nc4ccc(OC(F)(F)F)cc4)ncnc3c2)CC1
- pIC50 [1]: 5.24
- pIC50 [2]: < 5.00

Structure (SMILES): O=C(c1ccc2c(Nc3ccc(OC(F)(F)F)cc3)ncnc2c1)N1CCC(O)CC1
- pIC50 [1]: 5.71

Structure (SMILES): O=C(c1ccc2c(Nc3ccc(OC(F)(F)F)cc3)ncnc2c1)N1CCC(Br)CC1
- pIC50 [1]: 5.41

Structure (SMILES): NC(=O)C1CCN(C(=O)c2ccc3c(Nc4ccc(OC(F)(F)F)cc4)ncnc3c2)CC1
- pIC50 [1]: 5.21
- pIC50 [2]: < 5.00

Structure (SMILES): O=C(c1ccc2c(Nc3ccc(OC(F)(F)F)cc3)ncnc2c1)N1CCCC(CO)C1 (stereo not drawn)
- pIC50 [1]: 5.78
- pIC50 [2]: < 5.00

Structure (SMILES): Cc1c(Nc2ccc(OC(F)(F)F)cc2)ncnc1-c1ccc(S(N)(=O)=O)cc1
- pIC50 [2]: 5.17

Structure (SMILES): CC(C)S(=O)(=O)c1ccc(-c2cc(Nc3ccc(OC(F)(F)F)cc3)ncn2)cc1
- pIC50 [2]: 5.32

Structure (SMILES): CCN(CC)S(=O)(=O)c1ccc(-c2ncnc(Nc3ccc(OC(F)(F)F)cc3)c2C)cc1
- pIC50 [2]: 5.04

Structure (SMILES): CCS(=O)(=O)Nc1ccc(-c2cc(Nc3ccc(OC(F)(F)F)cc3)ncn2)cc1
- pIC50 [2]: 5.66

Structure (SMILES): CCCCS(=O)(=O)Nc1ccc(-c2cc(Nc3ccc(OC(F)(F)F)cc3)ncn2)cc1
- pIC50 [2]: 5.54

Structure (SMILES): CC(C)S(=O)(=O)Nc1ccc(-c2cc(Nc3ccc(OC(F)(F)F)cc3)ncn2)cc1
- pIC50 [2]: 5.65

Structure (SMILES): COCCCNC(=O)c1ccc(-c2ncnc(Nc3ccc(OC(F)(F)F)cc3)c2C)cc1
- pIC50 [2]: 5.73

Structure (SMILES): FC(F)(F)Oc1ccc(Nc2cc(Nc3cc(C4CC4)[nH]n3)ncn2)cc1
- pIC50 [2]: 5.49

Structure (SMILES): FC(F)(F)Oc1ccc(Nc2cc(Nc3nccn3-c3cccc(C(F)(F)F)c3)ncn2)cc1
- pIC50 [2]: 5.83

Structure (SMILES): Cc1c(Nc2ccc(OC(F)(F)F)cc2)ncnc1-c1cnn(CC(C)C)c1
- pIC50 [2]: 5.81

Structure (SMILES): Cc1c(Nc2ccc(OC(F)(F)F)cc2)ncnc1-c1cnn(C)c1
- pIC50 [2]: 5.52

Structure (SMILES): Cc1c(Nc2ccc(OC(F)(F)F)cc2)ncnc1-c1cnn(Cc2ccccc2)c1
- pIC50 [2]: 5.06

Structure (SMILES): FC(F)(F)Oc1ccc(Nc2cc(-c3cnn(Cc4cccnc4)c3)ncn2)cc1
- pIC50 [2]: 5.05

Structure (SMILES): FC(F)(F)Oc1ccc(Nc2cc(-c3cc(NCCN4CCOCC4)ncn3)ncn2)cc1 [drawing 444]
- pIC50 [2]: < 5.00
